Data: patent publication US8586565B2, “Kinase inhibitors useful for the treatment of myleoproliferative diseases and other proliferative diseases” (Deciphera Pharmaceuticals, LLC, priority 2006, dated 2013)

Sequences of proteins named here, by UniProt entry; tags and fusion partners are left off. A line that says so, or that is headed by a name, gives the form on record, which may keep a tag or linker. Residues count along the entry.
UniProt P00519, 229-512 with tags or gaps: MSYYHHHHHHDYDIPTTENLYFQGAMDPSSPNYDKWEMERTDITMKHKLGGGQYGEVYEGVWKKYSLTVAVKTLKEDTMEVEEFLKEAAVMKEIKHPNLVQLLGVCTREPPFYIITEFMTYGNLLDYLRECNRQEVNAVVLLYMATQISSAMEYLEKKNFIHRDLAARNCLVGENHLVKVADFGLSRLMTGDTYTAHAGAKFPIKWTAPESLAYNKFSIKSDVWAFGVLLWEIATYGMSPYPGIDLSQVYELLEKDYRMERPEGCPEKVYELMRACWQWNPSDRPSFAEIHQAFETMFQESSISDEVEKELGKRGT
UniProt P00519, 229-496 with tags or gaps T315I: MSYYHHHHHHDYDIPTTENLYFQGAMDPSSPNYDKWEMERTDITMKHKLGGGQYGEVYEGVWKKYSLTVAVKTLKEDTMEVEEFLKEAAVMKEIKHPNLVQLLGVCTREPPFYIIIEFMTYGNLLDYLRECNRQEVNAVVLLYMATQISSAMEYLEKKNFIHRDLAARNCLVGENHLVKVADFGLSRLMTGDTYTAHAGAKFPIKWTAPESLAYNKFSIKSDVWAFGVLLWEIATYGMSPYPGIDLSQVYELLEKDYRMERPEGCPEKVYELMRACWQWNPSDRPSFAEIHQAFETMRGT

Assays:
[1] = molecular target: pAbl kinase (Seq. ID no. 1) (Homo sapiens, UniProt P00519); experiment: pAbl kinase spectrophotometric coupled kinase assay; format: biochemical; conditions: read-out: p-Abl IC50, phosphorylated-Abl kinase, 2 h preincubation, ATP 500 μM
[2] = molecular target: Abl kinase (Seq. ID no. 1) (Homo sapiens, UniProt P00519); experiment: Abl kinase (u-Abl) spectrophotometric coupled kinase assay; format: biochemical; conditions: read-out: u-Abl IC50, unphosphorylated-Abl kinase, 2 h preincubation, ATP 500 μM
[3] = molecular target: Abl(T315I) (Seq. ID no. 2) kinase (Homo sapiens, UniProt P00519, T315I); experiment: Abl(T315I) kinase spectrophotometric coupled kinase assay; format: biochemical; conditions: read-out: T315I Abl IC50, T315I mutant Abl kinase, 2 h preincubation, ATP 500 μM
[4] = system: BaF3 cells transfected with bcr-Abl point mutant Y253F; experiment: Cell proliferation assay, BaF3 Y253F bcr-abl; format: cell-based; conditions: read-out: BaF3 Y253F bcr-abl IC50, 72 hours, Cell Titer Blue
[5] = system: BaF3 cells transfected with bcr-Abl point mutant T315I; experiment: Cell proliferation assay, BaF3 T315I bcr-abl; format: cell-based; conditions: read-out: BaF3 T315I bcr-abl IC50, 72 hours, Cell Titer Blue
[6] = system: BaF3 cells transfected with bcr-Abl point mutant M351T; experiment: Cell proliferation assay, BaF3 M351T bcr-abl; format: cell-based; conditions: read-out: BaF3 M351T bcr-abl IC50, 72 hours, Cell Titer Blue
[7] = system: BaF3 cells transfected with bcr-Abl point mutant E255K; experiment: Cell proliferation assay, BaF3 E255K bcr-abl; format: cell-based; conditions: read-out: BaF3 E255K bcr-abl IC50, 72 hours, Cell Titer Blue
[8] = system: BaF3 cells transfected with wild type bcr-Abl; experiment: Cell proliferation assay, BaF3 wt bcr-abl; format: cell-based; conditions: read-out: BaF3 wt bcr-abl IC50, 72 hours, Cell Titer Blue

Structure (SMILES)	IC50 [1]	IC50 [2]	IC50 [3]	IC50 ([1]; tested form: bis hydrochloride)	IC50 ([2]; tested form: bis hydrochloride)	IC50 ([4]; tested form: bis hydrochloride)	IC50 ([5]; tested form: bis hydrochloride)	IC50 ([6]; tested form: bis hydrochloride)	IC50 ([7]; tested form: bis hydrochloride)	IC50 ([3]; tested form: bis hydrochloride)	IC50 ([8]; tested form: bis hydrochloride)	IC50 [4]	IC50 [5]	IC50 [6]	IC50 [7]	IC50 [8]
CNC(=O)c1cc(Oc2ccc(NC(=O)Nc3cc(C(C)(C)C)nn3-c3ccc4[nH]ncc4c3)cc2)ccn1	350 nM	1.6 nM	160 nM	–	–	–	–	–	–	–	–	–	–	–	–	–
CNC(=O)c1cc(Oc2ccc(NC(=O)Nc3cc(C(C)(C)C)nn3-c3ccc4ncccc4c3)cc2)ccn1	–	–	–	22 nM	1 nM	108 nM	12 nM	35 nM	368 nM	38 nM	16 nM	–	–	–	–	–
CC(C)c1cc(NC(=O)Nc2ccc(Oc3ccnc(C(N)=O)c3)cc2)n(-c2ccc3ncccc3c2)n1	> 500 nM	8 nM	1000 nM	–	–	–	–	–	–	–	–	297 nM	87 nM	54 nM	1110 nM	49 nM

Read-outs that look alike come from different tables or passages of the source.
